Test results: publication PMC2635097 (Molecular pharmacology, 2008)

By UniProt entry, the sequences of proteins in these tests, tags left out.
UniProt Q9UGI6, whole entry: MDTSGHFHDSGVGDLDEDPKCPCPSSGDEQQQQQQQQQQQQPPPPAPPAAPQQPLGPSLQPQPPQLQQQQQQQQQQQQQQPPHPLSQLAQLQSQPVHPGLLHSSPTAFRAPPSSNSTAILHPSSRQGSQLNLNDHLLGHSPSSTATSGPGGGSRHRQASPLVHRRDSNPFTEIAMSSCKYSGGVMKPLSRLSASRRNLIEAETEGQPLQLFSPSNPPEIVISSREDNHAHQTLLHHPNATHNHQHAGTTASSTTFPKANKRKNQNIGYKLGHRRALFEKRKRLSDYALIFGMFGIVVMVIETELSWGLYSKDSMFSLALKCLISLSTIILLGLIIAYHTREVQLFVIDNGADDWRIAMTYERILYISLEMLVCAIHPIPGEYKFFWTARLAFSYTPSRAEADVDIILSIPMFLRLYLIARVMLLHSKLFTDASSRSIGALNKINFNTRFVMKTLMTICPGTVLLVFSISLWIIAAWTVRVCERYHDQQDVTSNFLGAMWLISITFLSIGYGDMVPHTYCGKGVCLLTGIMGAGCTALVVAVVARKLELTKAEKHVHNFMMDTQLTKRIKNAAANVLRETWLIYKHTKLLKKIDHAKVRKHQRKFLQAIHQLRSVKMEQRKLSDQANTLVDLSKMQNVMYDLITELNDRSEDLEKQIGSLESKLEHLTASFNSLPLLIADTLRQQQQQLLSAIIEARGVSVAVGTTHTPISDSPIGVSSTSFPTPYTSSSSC

Molecular target: hKCa2.3 (Homo sapiens, UniProt Q9UGI6)
Experiment: Whole-cell patch-clamp of KCa2.3 currents
Type: cell-based
Conditions: read-out: EC50 KCa2.3 activation

Nc1nc2ccc(OC(F)(F)F)cc2s1 [Riluzole, 2-amino-6-[trifluoromethoxy]benzothiazole, reference compound]
EC50: 12.5 µM
